# Measurements from patent US20210353621A1 (published 2021).
# Conditions: dogs, 3, 10 or 30 mg/kg oral once daily
structure (smiles),measurement,value
N#Cc1ccc(O[C@H]2CC[C@H](NC(=O)c3ccc(N4CCC(CN5CCN(c6cc7c(cc6F)C(=O)N(C6CCC(=O)NC6=O)C7=O)CC5)CC4)nn3)CC2)cc1Cl (stereo partly shown) [Compound (I-g)],reversible liver function enzyme elevation (considered non-adverse),observed in some mid- and high-dose animals
